The results in this text go back to patent US7678834B2, “Substituted 4-aminocyclohexanol compounds” (dated 2010).

Sequences of proteins named here, by UniProt entry; tags and fusion partners are left off. A change or cut given only in a name is not applied to a line headed by its entry.
UniProt P41146: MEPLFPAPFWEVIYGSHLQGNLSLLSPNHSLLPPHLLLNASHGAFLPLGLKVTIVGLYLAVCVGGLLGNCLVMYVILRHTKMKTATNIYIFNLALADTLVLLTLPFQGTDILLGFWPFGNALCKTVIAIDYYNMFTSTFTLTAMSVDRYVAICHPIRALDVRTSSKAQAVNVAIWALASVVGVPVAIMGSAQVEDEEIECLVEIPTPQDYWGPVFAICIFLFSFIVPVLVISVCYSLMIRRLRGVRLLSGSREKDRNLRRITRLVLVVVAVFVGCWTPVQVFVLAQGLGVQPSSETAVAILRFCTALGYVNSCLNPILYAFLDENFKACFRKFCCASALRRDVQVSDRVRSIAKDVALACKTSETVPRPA

One assay deals with ORL1 receptor (Homo sapiens, UniProt P41146). Put plainly: ORL1 receptor binding assay with 3H-nociceptin/orphanin FQ, membranes of recombinant CHO-ORL1 cells. Particulars: read-out: Ki value, 3H-nociceptin/orphanin FQ 0.5 nM.
In a further assay the test system is NMRI mice. Kind of assay: Analgesia testing in the tail flick test on the mouse. The settings on record: dosage 10 mg/kg intravenously.

Take `CN(C)C1(Cc2ccccc2)CCC(O)(CCc2ccccc2F)CC1` (centres unmarked): at ORL1 receptor, the Ki was found to be 30 nM.
Same read-out and setting: the result for `CN(C)C1(Cc2ccccc2)CCC(O)(Cc2cccc(F)c2)CC1` (centres unmarked) reads 900 nM; that for `OC1(CCc2ccccc2)CCC(Cc2ccccc2)(N2CCCC2)CC1` (centres unmarked), 40 nM; that for `CN(C)C1(Cc2ccccc2)CCC(O)(c2csc3ccccc23)CC1` (centres unmarked), 150 nM.
Same read-out and setting: the result for `CN(C)C1(Cc2ccccc2)CCC(O)(CCc2ccc(F)cc2)CC1` (centres unmarked) reads 40 nM; that for `CN(C)C1(Cc2cccc(F)c2)CCC(O)(Cc2ccccc2)CC1` (centres unmarked), 890 nM.
On to `CN(C)C1(Cc2ccccc2)CCC(O)(CCc2cccc(F)c2)CC1` (centres unmarked), for which the Ki on ORL1 receptor was determined as 20 nM.
Same read-out and setting: the same measure for `CN(C)C1(Cc2ccccc2)CCC(O)(c2cc3ccccc3o2)CC1` (centres unmarked): 150 nM.
On to “4-(Allylmethylamino)-4-benzyl-1-phenethylcyclohexanol hydrochloride”, for which, in the assay with NMRI mice, the “% MPE” value was 97 (10) %. For the same compound, the Ki on ORL1 receptor stood at 60 nM.
For `CN(C)C1(Cc2cccc(F)c2)CCC(O)(CCc2ccccc2)CC1` (centres unmarked), at ORL1 receptor, the Ki came out at 30 nM.
Same read-out and setting: the result for `CN(C)C1(Cc2ccccc2)CCC(O)(c2cc3ccccc3s2)CC1` (centres unmarked) reads 45 nM; that for `CN(C)C1(Cc2ccc(F)cc2)CCC(O)(CCc2ccccc2)CC1` (centres unmarked), 200 nM.
Same read-out and setting: the result for `CN(C)C1(Cc2ccccc2)CCC(O)(CCc2ccccc2)CC1` (centres unmarked) reads 20 nM.
Same read-out and setting: the same measure for `CN(C)C1(Cc2ccccc2)CCC(O)(c2cc3ccccc3n2C)CC1` (centres unmarked): 130 nM.
As to `CN(C)C1(Cc2ccccc2)CCC(O)(Cc2ccc(F)cc2)CC1` (centres unmarked), at ORL1 receptor, the Ki is 400 nM.
Still for that read-out and setting: the same measure for `CN(C)C1(Cc2ccccc2F)CCC(O)(CCc2ccccc2)CC1` (centres unmarked): 50 nM.
